Assay results as given in publication PMC11652885, “Natural volatiles preventing mosquito biting: An integrated screening platform for accelerated discovery of ORco antagonists” (The Journal of Biological Chemistry, 2024).
Like-named read-outs stand apart in the source and are kept apart here.

By UniProt entry, the sequences of proteins in these tests, tags left out. Where a name states a change or a piece, a line headed by the entry shows the natural chain unless it says otherwise.
UniProt Q7QCC7: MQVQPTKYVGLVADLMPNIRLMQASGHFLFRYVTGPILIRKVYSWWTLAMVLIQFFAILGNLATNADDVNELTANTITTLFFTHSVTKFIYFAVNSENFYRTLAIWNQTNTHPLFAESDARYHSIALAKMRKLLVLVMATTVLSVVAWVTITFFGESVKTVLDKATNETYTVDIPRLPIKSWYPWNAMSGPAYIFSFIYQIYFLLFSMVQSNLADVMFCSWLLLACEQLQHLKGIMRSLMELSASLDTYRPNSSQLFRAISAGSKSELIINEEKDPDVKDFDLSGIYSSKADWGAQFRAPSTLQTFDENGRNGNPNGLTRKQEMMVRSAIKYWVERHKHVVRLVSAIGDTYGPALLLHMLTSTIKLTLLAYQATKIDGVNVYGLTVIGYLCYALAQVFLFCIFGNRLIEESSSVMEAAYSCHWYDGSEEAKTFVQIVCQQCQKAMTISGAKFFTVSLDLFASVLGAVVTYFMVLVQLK

What was measured:
AgamORco [1] = target: T1, AgamORco (Anopheles gambiae, UniProt Q7QCC7); settings: cited from earlier work; for Ex vivo validation: training-set pharmacophore hits, previously reported ex vivo activities, ref [26]; for Cell-based activity (IC50 in μM): training-set compounds, NA entries
AgamORco [2] = target: T1, AgamORco; settings: ref [25], cited from earlier work; for Antagonist type: orthosteric or allosteric relative to the OrcoRAM2 binding site, previously identified; for IC50: read-out: Cell-based activity (IC50 in μM), previously identified orthosteric antagonists of the training set
AgamORco [3] = target: T1, AgamORco; experiment: Insect cell-based (Bm5 cells expressing AgamORco and Photina) Ca2+ influx luminescence screen for ORco antagonists; settings: for inhibition of ORco activity / % response at 100μΜ OA: compound 100 μM; for inhibition of ORco activity: 100 μM OA; for % response at 100μΜ OA: then 100 μM OA, OA alone = 100%; for Ex vivo validation / Cell-based activity (IC50 in μM): new VOC collection; for Ex vivo validation: compounds at 100 μM; for Cell-based activity (IC50 in μM): NA entries
Aedes albopictus = experiment: Hand in a cage repellence bioassay (human hand landing counts); type: in vivo; settings: for RI (at 10nmole/cm^2): repellency index, 10 nmole/cm^2 of exposed hand area, 5-min landing counts
AgamORco [4] = target: T1, AgamORco; experiment: Competition (binding) assays against the ORco agonist OrcoRAM2 in Bm5 cells expressing AgamORco and Photina; settings: for Antagonist type: orthosteric or allosteric relative to the ORco agonist binding site, competition with 50, 100, 150 μM OrcoRAM2
[5] = in the presence of 50 μM ORco agonist (OA, OrcoRAM2)
[6] = in the presence of 150 μM ORco agonist (OA, OrcoRAM2)
[7] = in the presence of 100 μM ORco agonist (OA, OrcoRAM2)

CCCC=CC=CC=O [compound 39, 2,4-Octadienal]
Ex vivo validation (AgamORco [1]): √ (>40% inhibition)
Antagonist type (AgamORco [2]): orthosteric
IC50 (AgamORco [2]): 59.8 µM

CC(C)=CCC/C(C)=C/C=O
inhibition of ORco activity (AgamORco [3]): reduced activities bordering the arbitrary cutoff inhibition limit
% response at 100μΜ OA (AgamORco [3]): 69%

CCOC(=O)/C=C/c1ccccc1
Ex vivo validation (AgamORco [1]): √ (>40% inhibition)
Antagonist type (AgamORco [2]): orthosteric
IC50 (AgamORco [2]): 64.5 µM

CC(C)=CCC/C(C)=C/CO
% response at 100μΜ OA (AgamORco [3]): 43%

CC(=O)CCC=C(C)C
Cell-based activity (IC50 in μM) (AgamORco [1]; ref [25]): NA (not or marginally active (≤40% inhibition) in the ex vivo assays)
Ex vivo validation (AgamORco [1]): NA (not active (<40% inhibition))

C=CC(C)(O)CC/C=C(\C)CCC=C(C)C (centres unmarked)
% response at 100μΜ OA (AgamORco [3]): 51%

CCCCCCCCC=O
inhibition of ORco activity (AgamORco [3]): reduced activities bordering the arbitrary cutoff inhibition limit
% response at 100μΜ OA (AgamORco [3]): 65%

CCCCCC(C)=O
Cell-based activity (IC50 in μM) (AgamORco [1]; ref [25]): NA (not or marginally active (≤40% inhibition) in the ex vivo assays)
Ex vivo validation (AgamORco [1]): NA (not active (<40% inhibition))

Limonene
% response at 100μΜ OA (AgamORco [3]): 82%

Isopropyl cinnamate
RI (at 10nmole/cm^2) (Aedes albopictus): 0.29 ± 0.04
Ex vivo validation (AgamORco [1]): √ (>40% inhibition)
Antagonist type (AgamORco [2]): orthosteric
IC50 (AgamORco [2]): 41.7 µM
inhibition of ORco activity (AgamORco [3]): 48%
% response at 100μΜ OA (AgamORco [3]): 52%

C=CC(C)(O)CCC=C(C)C (centres unmarked)
inhibition of ORco activity (AgamORco [3]): no- or low-activity inhibitors
% response at 100μΜ OA (AgamORco [3]): 98%

Aromadendrene
RI (at 10nmole/cm^2) (Aedes albopictus): 0.25 ± 0.03
pIC50 ± error (AgamORco [4]; OA conc. 50 μM): 4.599 ± 0.09235
pIC50 ± error (AgamORco [4]; OA conc. 150 μM): 4.668 ± 0.07359
IC50 (AgamORco [4]; [5]): 25.2 µM
IC50 (AgamORco [4]; [6]): 21.5 µM
Antagonist type (AgamORco [4]): allosteric

Bisabolene
IC50 (AgamORco [4]; [7]): 47.7 µM
Antagonist type (AgamORco [4]): orthosteric
Ex vivo validation (AgamORco [3]): √ (Validated antagonist hits have been defined as VOCs causing at least 40% inhibition of ORco activity in the ex vivo assays)

CC1(C)C2CCC1(C)C(O)C2 (centres unmarked) [compound 64, Borneol]
RI (at 10nmole/cm^2) (Aedes albopictus): 0.58 ± 0.02
pIC50 ± error (AgamORco [4]; OA conc. 50 μM): 4.0602 ± 0.2401
pIC50 ± error (AgamORco [4]; OA conc. 150 μM): 4.068 ± 0.09235
IC50 (AgamORco [4]; [7]): 86.5 µM
Antagonist type (AgamORco [4]): allosteric

cis-Jasmone
Cell-based activity (IC50 in μM) (AgamORco [3]): NA (not or marginally active (≤40% inhibition) in the ex vivo assays)
Ex vivo validation (AgamORco [3]): NA (Not active or less than 40% maximum inhibition in the competition assay)

Limonene oxide
Cell-based activity (IC50 in μM) (AgamORco [3]): NA (not or marginally active (≤40% inhibition) in the ex vivo assays)
Ex vivo validation (AgamORco [3]): NA (Not active or less than 40% maximum inhibition in the competition assay)

CC(=O)OC/C=C(\C)CCC=C(C)C
% response at 100μΜ OA (AgamORco [3]): 67%

CC1=CCC2[C@H](C1)C2(C)C (some centres unmarked)
Antagonist type (AgamORco [2]): allosteric

C=C(C)C1CC=C(C)C(=O)C1 (centres unmarked)
% response at 100μΜ OA (AgamORco [3]): 71%

Cc1ccc(C(C)C)cc1O
RI (at 10nmole/cm^2) (Aedes albopictus): 0.17 ± 0.01
Antagonist type (AgamORco [2]): allosteric

Ethyl (E/Z)-2-(cyclohex-2-en-1-ylidene) acetate
repellence index (RI) (Aedes albopictus; dose 50 nmole/cm^2, preliminary tests, data not shown): high activities
pIC50 ± error (AgamORco [4]; OA conc. 50 μM): 3.901 ± 0.3215
pIC50 ± error (AgamORco [4]; OA conc. 100 μM): 3.711 ± 0.2615
pIC50 ± error (AgamORco [4]; OA conc. 150 μM): 3.599 ± 0.2537
IC50 (AgamORco [4]; [5]): 124 µM
IC50 (AgamORco [4]; [7]): 196 µM
IC50 (AgamORco [4]; [6]): 252 µM
Antagonist type (AgamORco [4]): orthosteric
Ex vivo validation (AgamORco [3]): √ (Validated antagonist hits have been defined as VOCs causing at least 40% inhibition of ORco activity in the ex vivo assays)

C=CC(C)(CCC=C(C)C)OC(C)=O (centres unmarked)
Ex vivo validation (AgamORco [1]): √ (>40% inhibition)
Antagonist type (AgamORco [2]): orthosteric
IC50 (AgamORco [2]): 67.7 µM
% response at 100μΜ OA (AgamORco [3]): 59%

CC1=CC[C@@H](C(C)(C)O)CC1
inhibition of ORco activity (AgamORco [3]): no- or low-activity inhibitors
% response at 100μΜ OA (AgamORco [3]): 100%

(4R,6R,8R)- trimethyldecan-2-one
IC50 (AgamORco [4]; [7]): 57 µM
Antagonist type (AgamORco [4]): orthosteric
Ex vivo validation (AgamORco [3]): √ (Validated antagonist hits have been defined as VOCs causing at least 40% inhibition of ORco activity in the ex vivo assays)

Cumin alcohol
Antagonist type (AgamORco [2]): allosteric

Phytol
Cell-based activity (IC50 in μM) (AgamORco [3]): NA (not or marginally active (≤40% inhibition) in the ex vivo assays)
Ex vivo validation (AgamORco [3]): NA (Not active or less than 40% maximum inhibition in the competition assay)

CCCCC(=O)CCC
ORco ex vivo inhibition (AgamORco [1]; previous ex vivo activity screens, ref [25]): did not display any antagonist activities
Cell-based activity (IC50 in μM) (AgamORco [1]; ref [25]): NA (not or marginally active (≤40% inhibition) in the ex vivo assays)
Ex vivo validation (AgamORco [1]): NA (not active (<40% inhibition))

(2E,4E)-Decadienal
RI (at 10nmole/cm^2) (Aedes albopictus): 0.71 ± 0.05
pIC50 ± error (AgamORco [4]; OA conc. 50 μM): 4.7384 ± 0.05967
pIC50 ± error (AgamORco [4]; OA conc. 150 μM): 4.073 ± 0.1405
IC50 (AgamORco [4]; [5]): 18.3 µM
IC50 (AgamORco [4]; [6]): 84.4 µM
Antagonist type (AgamORco [4]): orthosteric
Ex vivo validation (AgamORco [3]): √ (Validated antagonist hits have been defined as VOCs causing at least 40% inhibition of ORco activity in the ex vivo assays)

CC(C)=CCC[C@](C)(O)[C@@H]1CC=C(C)CC1 [compound 77, α-Bisabolol]
IC50 (AgamORco [4]; [7]): 47 µM
Antagonist type (AgamORco [4]): orthosteric

CCCCCCC(C)=O
Cell-based activity (IC50 in μM) (AgamORco [1]; ref [25]): NA (not or marginally active (≤40% inhibition) in the ex vivo assays)
Ex vivo validation (AgamORco [1]): NA (not active (<40% inhibition))

γ-Undecalactone
Cell-based activity (IC50 in μM) (AgamORco [3]): NA (not or marginally active (≤40% inhibition) in the ex vivo assays)
Ex vivo validation (AgamORco [3]): NA (Not active or less than 40% maximum inhibition in the competition assay)

C=CC(=C)CCC=C(C)C
% response at 100μΜ OA (AgamORco [3]): 71%

CCCCCC(=O)O
inhibition of ORco activity (AgamORco [3]): marginal inhibitory activity
% response at 100μΜ OA (AgamORco [3]): 59%

Geranyl acetone
% response at 100μΜ OA (AgamORco [3]): 92%

CC12CCC(C1)C(C)(C)C2=O (centres unmarked)
% response at 100μΜ OA (AgamORco [3]): 67%

CCCCCCCC(=O)O
% response at 100μΜ OA (AgamORco [3]): 81%

CC1(C)C2CC3OC3(C)C1C2 (stereo not drawn) [compound 62, α-Pinene oxide]
pIC50 ± error (AgamORco [4]; OA conc. 50 μM): 4.309 ± 0.2591
pIC50 ± error (AgamORco [4]; OA conc. 150 μM): 4.191 ± 0.03993
IC50 (AgamORco [4]; [7]): 52 µM
Antagonist type (AgamORco [4]): allosteric
